Data as given in article PMC9061857, “A fluorogenic probe for granzyme B enables in-biopsy evaluation and screening of response to anticancer immunotherapies” (Nature Communications, 2022).

Experiments:
Assay type in all cases: cell-based, mouse
E0771 cells = assay: Flow cytometry of E0771 cells in co-culture with CD8+ T cells
Method: Legends: viable (gray), H5-stained (green), apoptotic (red). […] Black arrows highlight T cells, yellow arrows highlight H5-stained intracellular GzmB puncta. […]
E0771 cells (5 × 10^4 cells/well) were plated on Geltrex-coated six-well plates with IL-2 (1000 U mL^−1) and co-cultured with either murine CD8+ T cells (2.5 × 10^5 cells/well) which had been previously cultured for 2 days in E-DMEM with anti-mouse CD3e (2 µg mL^−1, ThermoFisher, Catalog: 16-0031-86), anti-mouse CD28 (5 µL mL^−1, ThermoFisher, Catalog: 16-0281-86), and IL-2 (80 U mL^−1). Treatments with staurosporine (1 μM) were for 1 h. […] Cells were then washed twice and incubated with Annexin V-AF647 (10 nM, 1:100 dilution) prior to flow cytometry analysis in a 5 L LSR (software: BD […] V8.0) with data analyzed with FlowJo V10. […]
mouse CD8+ T cells and mKate-E0771 cells. b) Representative flow cytometry contour plots of E0771 cells in: left) co-cultures of E0771 cells (50,000 cells well-1) and activated […]
(IL-2 for 24 h) murine CD8+ T cells (200,000 cells well-1), center) co-cultures of E0771 […]
cells (50,000 cells well-1) and non-activated (IL-2 for 2 h) murine CD8+ T cells (200,000 […]
cells well-1), right) E0771 alone cells treated with staurosporine (1 µM, 1 h). c) Representative flow cytometry contour plots of CD8+ T cells in: left) co-cultures of E0771 […]
cells (50,000 cells well -1) and activated (IL-2 for 24 h) murine CD8+ T cells (200,000 cells […]
well-1), center) co -cultures of E0771 cells (50,000 cells well -1) and non-activated (IL-2 for […]
2 h) murine CD8+ T cells (200,000 cells well -1). All cultures in b) and c) were equally […]
from H5-labeled E0771 cancer cells following co -culture with IL-2 activated CD8+ T cells […]
with and without preincubation of the GzmB inhibitor Ac -IEPD-CHO. Data presented as […]
633/670 nm (for AF647-Annexin V). Representative plots from independent experiments performed in triplicate. Source data in d provided as a Source Data file.

[1] = system: murine naïve CD8+ T cells; assay: GzmB expression in CD8+ T cells following cytokine stimulation (flow cytometry); details: after IL-2 treatment, anti-GzmB flow cytometry
Method: Supplementary Figure 6. Analysis of GzmB expression in CD8+ T cells following
cytokine stimulation. Representative histograms (from experiments performed in
triplicate) of GzmB expression in murine naïve CD8+ T cells following 2 days of culture
with anti-mouse CD3 (2 μg mL-1), anti-mouse CD28 (5 μg mL-1) and different cytokines at
the following concentrations: IL-2 (60 U mL-1), IL-15 (60 U mL-1). Cells were incubated
with anti-mouse GzmB PE (50 nM) and analysed by flow cytometry in a 5LSR flow
cytometer. The histograms show naïve CD8+ T cells in red and cytokine-stimulated cells
in blue. The percentage of anti-GzmB+ CD8+ T cells is shown for every condition.
Excitation/emission wavelengths for anti-mouse GzmB PE: 561 nm/582 nm.
(1 picture or pasted object on this page, not shown here)

[2] = system: E0771 cells alone or in co-culture with CD8+ T cells; assay: Hit validation of AZD5363 by flow cytometry; details: IL-2, co-culture with CD8+ T cells
Method: (from 3 independent experiments) in E0771 cells alone (50,000 cells well-1) or in co-culture with CD8+ T cells (200,000 cells well-1) and treatment of AZD5363 (1 μM). IL-2 concentration: 1,000 U mL-1. Excitation/emission wavelengths: 488 nm/525 nm. b) Representative flow cytometry contour plots (from 3 independent experiments; gating […]
(1 picture or pasted object on this page, not shown here) […]
strategy shown in Supplementary Figure 7) of E0771 cells (50,000 cells well-1) after co-culture with murine CD8+ T cells (200,000 cells well -1) and dual treatment with IL -2 (200 […]
U mL-1) and AZD5363 (1 μM).
633/670 nm (for AF647-Annexin V). c) Percentages of E0771 cells that were double - […]
in a). Data presented as mean values±SEM (n=3). P values (p<0.001 and p=0.0093) were obtained from ONE-ANOVA tests with multiple c omparisons. Source data in c provided

[3] = co-culture with active CD8+ T cells (24 h IL-2), replicate 1
[4] = co-culture with active CD8+ T cells (24 h IL-2), replicate 2
[5] = co-culture with active CD8+ T cells (24 h IL-2), replicate 3
[6] = co-culture with inactive CD8+ T cells (2 h IL-2), replicate 1
[7] = co-culture with inactive CD8+ T cells (2 h IL-2), replicate 2
[8] = co-culture with inactive CD8+ T cells (2 h IL-2), replicate 3

## IL-2: interleukin IL-2, cytokine for survival, proliferation and activation of CD8+ T cells
E0771 cells; [3]
  Annexin V +ve E0771 cells: 88%
  viable E0771 cells: 12%
E0771 cells; [4]
  Annexin V +ve E0771 cells: 88%
  viable E0771 cells: 10%
E0771 cells; [5]
  Annexin V +ve E0771 cells: 84%
  viable E0771 cells: 19%
E0771 cells; [6]
  Annexin V +ve E0771 cells: 18%
  viable E0771 cells: 74%
E0771 cells; [7]
  Annexin V +ve E0771 cells: 14%
  viable E0771 cells: 86%
E0771 cells; [8]
  Annexin V +ve E0771 cells: 39%
  viable E0771 cells: 62%
[1]
  CD8+ T cells expressing GzmB: over 80%
[2]; Data1
  E0771 cells double-stained with probe H5 and AF647-Annexin V: 21%
[2]; Data2
  E0771 cells double-stained with probe H5 and AF647-Annexin V: 29%
[2]; Data3
  E0771 cells double-stained with probe H5 and AF647-Annexin V: 27%
